Among the data in patent publication US6710088B2 (NPS Pharmaceuticals, Inc., priority 1996, dated 2004) are EC50 values, retold here.

Chains of the proteins cited; added tags and fusions are not shown. Residues count along the entry.
UniProt P41180, 20-1078 limits assumed: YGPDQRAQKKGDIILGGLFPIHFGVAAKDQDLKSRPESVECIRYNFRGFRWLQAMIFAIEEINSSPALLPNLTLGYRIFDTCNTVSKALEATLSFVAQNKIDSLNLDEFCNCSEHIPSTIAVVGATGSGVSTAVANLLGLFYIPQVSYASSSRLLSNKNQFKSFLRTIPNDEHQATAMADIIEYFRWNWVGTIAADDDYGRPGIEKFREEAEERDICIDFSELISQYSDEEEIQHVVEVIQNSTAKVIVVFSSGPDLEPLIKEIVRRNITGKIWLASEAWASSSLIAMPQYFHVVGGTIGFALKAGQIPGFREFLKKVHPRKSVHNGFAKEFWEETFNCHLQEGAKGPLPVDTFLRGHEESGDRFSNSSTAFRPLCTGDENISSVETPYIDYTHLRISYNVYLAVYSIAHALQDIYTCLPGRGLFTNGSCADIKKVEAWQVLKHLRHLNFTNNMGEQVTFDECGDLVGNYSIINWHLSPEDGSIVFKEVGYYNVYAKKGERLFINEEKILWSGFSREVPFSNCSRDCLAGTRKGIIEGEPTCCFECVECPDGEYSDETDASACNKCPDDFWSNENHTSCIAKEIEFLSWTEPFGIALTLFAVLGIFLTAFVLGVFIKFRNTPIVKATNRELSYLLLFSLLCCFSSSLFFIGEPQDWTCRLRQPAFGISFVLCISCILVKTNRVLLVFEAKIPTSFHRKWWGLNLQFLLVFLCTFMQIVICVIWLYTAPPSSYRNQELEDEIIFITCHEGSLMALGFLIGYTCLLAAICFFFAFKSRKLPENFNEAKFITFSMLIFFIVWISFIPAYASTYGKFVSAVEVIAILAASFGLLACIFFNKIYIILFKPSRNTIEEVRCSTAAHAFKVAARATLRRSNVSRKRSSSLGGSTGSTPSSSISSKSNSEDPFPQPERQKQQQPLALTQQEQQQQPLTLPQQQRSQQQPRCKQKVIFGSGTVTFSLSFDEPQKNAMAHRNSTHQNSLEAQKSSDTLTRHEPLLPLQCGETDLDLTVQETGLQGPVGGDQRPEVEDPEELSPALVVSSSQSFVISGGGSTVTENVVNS

The target in the experiment is calcium receptor (Homo sapiens, UniProt P41180). Put plainly: Calcium receptor activity in recombinant HEK 293 4.0-7 cells (fluorescence of dye-loaded cells). The conditions noted are these: recombinant HEK 293 4.0-7 cells containing a calcium receptor; 1 mM CaCl2, 1 mM MgCl2; fluorescence 340/510 nm. As for the experimental part:
Recombinant HEK 293 4.0-7 cells containing a calcium receptor were constructed as described by Rogers et al., J. Bone Miner. Res. 10 Suppl. 1:S483, 1995 (hereby incorporated by reference herein). The recombinant cells were loaded with fura-2 by incubating the cells in Dulbecco's modified Eagle's medium buffered with 20 mM HEPES containing about 5 μM […] for one hour at room temperature. Cells were then rinsed with Hank's balanced salt solution buffered with 20 mM HEPES containing 1 mM CaCl2 and 1 mM MgCl2. Compounds to be tested were then added to the cells and fluorescence was measured (excitation and emission wavelengths of 340 and 510 nm, respectively).
`CCCC[C@@H](N[C@H](C)c1cccc2ccccc12)c1ccc(OC)c(C)c1`: the EC50 was 23 nM.

As for `COc1ccc([C@H](N[C@H](C)c2cccc3ccccc23)C(C)C)cc1C`, the EC50 was found to be 1600 nM. For the compound `C[C@@H](N[C@H](C)c1cccc2ccccc12)c1cc2ccccc2o1`, the EC50 came to 57 nM. Then `CCC[C@@H](N[C@H](C)c1cccc2ccccc12)c1ccc(OC)c(C)c1`, with 29 nM. With `COc1cccc([C@@H](C)NC/C=C/c2ccccc2Cl)c1` the figure was 52 nM. Then `C[C@@H](NCCc1ccccc1Cl)c1cccc(OCC(=O)O)c1`, with 22000 nM; and `C[C@@H](NCc1ccco1)c1cccc2ccccc12`, with 602 nM. `CC(C)(NCCCc1ccccc1Cl)c1cccc2ccccc12`: the EC50 was found to be 1100 nM. As for `COc1cccc(C(C)(C)NCCCc2cccc(C(F)(F)F)c2)c1`, the EC50 stood at 2900 nM. With `COc1cccc([C@@H](C)NCCCc2ccc(Cl)cc2Cl)c1` the figure was 660 nM; with `C[C@@H](NCc1ccc(Br)c(Cl)c1)c1cccc2ccccc12`, 12 nM. In the case of `C[C@@H](NCc1ccc(I)c(Cl)c1)c1cccc2ccccc12`, the EC50 was determined as 9.5 nM. Regarding `FC(F)(F)c1cccc(CCCN2CCc3ccccc3C2)c1`, the EC50 was greater than 3000 nM. In the case of `COc1cccc([C@@H](C)NCCCc2cccc(Cl)c2)c1`, the EC50 amounted to 286 nM. Turning to `C[C@@H](NCc1ccc(Br)c(Br)c1)c1cccc2ccccc12`, the EC50 stood at 22 nM. Take `C[C@@H](NCc1ccsc1)c1cccc2ccccc12`: the EC50 is 1100 nM. With `COc1cccc([C@@H](C)NCCCc2ncccn2)c1` the figure was 303 nM; with `CC(C)(NCCCc1cccc(C(F)(F)F)c1)c1cccc2ccccc12`, 1500 nM. With `COc1ccc(CN[C@H](C)c2cccc3ccccc23)cc1I` the figure was 24 nM; with `COc1cccc([C@@H](C)NC(C)/C=C/c2cccc(OC(F)(F)F)c2)c1` (single isomer, unassigned) [Compound 27G], 70 nM.

`C[C@@H](NCc1cccs1)c1cccc2ccccc12`: the EC50 is 1200 nM. Then `CC(/C=C/c1cccc(OC(F)(F)F)c1)N[C@H](C)c1cccc2ccccc12` (single isomer, unassigned) [Compound 27V], with 140 nM; and `COc1cccc([C@@H](C)NCCCc2ccc(Cl)c(Cl)c2)c1`, with 810 nM; and `C[C@@H](NCc1csc2ccccc12)c1cccc2ccccc12`, with 2750 nM. Consider `COc1cccc([C@@H](C)NCCOc2ccccc2Cl)c1`, for which the EC50 came to 1800 nM. Turning to `COc1cccc([C@@H](C)NCCCc2cccc(Cl)c2Cl)c1`, the EC50 came to 210 nM.

Turning to `C[C@@H](NCc1ccc(I)c(Br)c1)c1cccc2ccccc12`, the concentration for a half-maximal effect (EC50) is 16 nM.

Take `COc1cccc([C@@H](C)NC(C)/C=C/c2cccc(OC(F)(F)F)c2)c1` (single isomer, unassigned) [Compound 27F]: the EC50 came to 230 nM. In the case of `CC(NCCCc1ccccc1Cl)c1cccc2c1OCO2` (single isomer, unassigned) [Compound 28C], the EC50 was found to be 270 nM.

For `C[C@@H](NCCCCc1cc(Cl)ccc1Cl)c1cccc2ccccc12`, the EC50 was 170 nM. Consider `COc1cccc(C(C)(C)NCCCc2ccccc2)c1`, for which the EC50 came to 12000 nM.

Consider `CC(/C=C/c1cccc(OC(F)(F)F)c1)N[C@H](C)c1cccc2ccccc12` (single isomer, unassigned) [Compound 27U], for which the EC50 worked out at 210 nM. Then `CC(NCCCc1ccccc1Cl)c1cccc(Cl)c1Cl` (centres unmarked), with 3800 nM; and `COc1cccc(CNCCCc2cccc(Cl)c2)c1`, with 10900 nM. Turning to `COc1cccc([C@@H](C)NCCCc2ccc(C#N)cc2)c1`, the EC50 stood at 2550 nM.

On to `COc1cccc([C@@H](C)NCCCc2ccccc2C#N)c1`, for which the EC50 was 960 nM.

Turning to `CC(NCCCc1ccccc1Cl)c1cccc2c1OCO2` (single isomer, unassigned) [Compound 28D], the EC50 turned out to be 7300 nM. As to `C[C@@H](NCc1ccoc1)c1cccc2ccccc12`, the EC50 is 3000 nM.
